Values of other authors as cited in article PMC7730073.

Experiments:
[1] = molecular target: Metallothionein-3 (Homo sapiens) (UniProt P25713)
[2] = molecular target: Retinol-binding protein (Homo sapiens) (UniProt P02753)

Transthyretin (from UniProt P02766)
Kd [1]: 374 nM
Kd [2]: 800 nM
